Experimental data reported in ChEMBL document CHEMBL4610086, “N-Acylethanolamine Acid Amidase (NAAA): Structure, Function, and Inhibition” (J Med Chem, 2020).

Target: T1, N-acylethanolamine-hydrolyzing acid amidase (Rattus norvegicus, UniProt Q5KTC7)
T1 sequence (Q5KTC7 whole entry): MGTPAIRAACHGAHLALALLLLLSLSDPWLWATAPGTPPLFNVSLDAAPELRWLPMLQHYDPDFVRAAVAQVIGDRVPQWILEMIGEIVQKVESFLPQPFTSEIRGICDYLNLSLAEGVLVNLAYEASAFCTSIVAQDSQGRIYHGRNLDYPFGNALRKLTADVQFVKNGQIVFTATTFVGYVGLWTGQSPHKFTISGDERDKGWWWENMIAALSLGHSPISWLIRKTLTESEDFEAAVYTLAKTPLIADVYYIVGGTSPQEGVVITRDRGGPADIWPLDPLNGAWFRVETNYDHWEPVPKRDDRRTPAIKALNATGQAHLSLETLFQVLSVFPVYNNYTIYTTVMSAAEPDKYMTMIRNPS
Assay: Inhibition of rat NAAA

- IC50: 13 nM
Compound: O=C(N[C@H]1CNC1=O)OCCCCC1CCCCC1
